Consider one compound from ChEMBL document CHEMBL3259739, “Synthesis and structure-activity relationship of trisubstituted thiazoles as Cdc7 kinase inhibitors” (Eur J Med Chem, 2014).

Protein sequences, listed by entry. Tags and fused reporters are not part of them. Lines headed by an entry give the natural chain unless they say otherwise; changes in a name come on top.
UniProt Q9UBU7: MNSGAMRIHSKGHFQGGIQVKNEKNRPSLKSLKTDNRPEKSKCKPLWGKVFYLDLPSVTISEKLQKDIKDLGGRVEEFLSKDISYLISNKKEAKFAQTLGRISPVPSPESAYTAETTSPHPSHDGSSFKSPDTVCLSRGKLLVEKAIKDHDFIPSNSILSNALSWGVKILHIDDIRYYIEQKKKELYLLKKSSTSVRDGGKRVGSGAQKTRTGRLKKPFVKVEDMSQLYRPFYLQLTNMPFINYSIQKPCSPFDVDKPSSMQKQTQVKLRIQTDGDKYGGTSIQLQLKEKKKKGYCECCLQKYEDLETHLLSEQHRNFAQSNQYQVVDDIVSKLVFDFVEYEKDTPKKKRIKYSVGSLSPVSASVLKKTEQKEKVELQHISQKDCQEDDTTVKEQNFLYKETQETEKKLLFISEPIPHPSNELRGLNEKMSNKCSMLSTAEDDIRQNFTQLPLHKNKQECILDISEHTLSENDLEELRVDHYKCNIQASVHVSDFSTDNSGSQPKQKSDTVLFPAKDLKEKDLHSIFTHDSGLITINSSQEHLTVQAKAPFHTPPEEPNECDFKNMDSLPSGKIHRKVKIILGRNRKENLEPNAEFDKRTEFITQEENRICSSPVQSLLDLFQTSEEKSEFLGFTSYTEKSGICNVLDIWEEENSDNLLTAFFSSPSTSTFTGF
UniProt O00311: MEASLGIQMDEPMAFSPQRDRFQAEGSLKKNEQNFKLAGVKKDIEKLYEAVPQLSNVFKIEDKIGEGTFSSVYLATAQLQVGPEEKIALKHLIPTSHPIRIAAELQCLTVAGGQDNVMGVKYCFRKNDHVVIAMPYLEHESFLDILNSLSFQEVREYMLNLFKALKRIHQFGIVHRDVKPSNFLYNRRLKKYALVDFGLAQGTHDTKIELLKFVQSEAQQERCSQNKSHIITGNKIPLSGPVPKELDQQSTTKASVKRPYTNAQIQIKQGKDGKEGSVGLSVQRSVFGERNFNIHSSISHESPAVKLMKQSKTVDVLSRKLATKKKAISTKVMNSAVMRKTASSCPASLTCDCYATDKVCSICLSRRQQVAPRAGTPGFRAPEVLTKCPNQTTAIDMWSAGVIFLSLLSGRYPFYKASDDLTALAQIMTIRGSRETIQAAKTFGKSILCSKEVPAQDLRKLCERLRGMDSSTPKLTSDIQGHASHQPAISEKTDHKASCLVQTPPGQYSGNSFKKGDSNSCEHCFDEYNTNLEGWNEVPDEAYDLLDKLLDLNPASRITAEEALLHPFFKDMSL

Bounds are passed on as bounds.

This test concerns the target CDC7/DBF4 (Cell division cycle 7-related protein kinase/Activator of S phase kinase) (Homo sapiens) (UniProt Q9UBU7+O00311). Nature of the test: Ratio of IC50 for Cdc7/Dbf4 in human HCT116 cells to IC50 for Cdc7/Dbf4 (unknown origin). Format: cell-based. Particulars: HCT-116.

Consider `NC(=O)c1sc(-c2ccnc(N)n2)nc1-c1ccc(Cl)cc1Cl`, for which the Ratio IC50 was more than 30.
